# Apparent affinities of Ab-14 variants for a coronavirus HR2 peptide

The measurements come from Li et al. 2023 (doi:10.1038/s41467-023-39022-2) through the FLAb antibody collection.

All variants were tested on one target, the spike HR2 peptide PDVDLGDISGINAS (SARS-CoV-2).

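The parent was found by panning a naive human phage display library on the peptide. This is the validation round: designs drawn from the data on random variants, tested in the same kind of assay. Their group label is 14L_En_Gibbs (En: ensemble of fine-tuned language models; Gibbs: Gibbs sampling). Affinity was read by AlphaSeq, a pooled yeast mating assay with surface-displayed partners. The frequency of each diploid, read from paired DNA barcodes, reflects how well the two displayed proteins bind. Scores were corrected for input abundance and mapped to Kd with protein pairs of known affinity run in the same pool. There are six technical replicates.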

Ab-14 is the parent antibody, in scFv form: VH, then the linker GGGGSGGGGSGGGGS, then VL. The heavy chain is unchanged in all variants.
VH: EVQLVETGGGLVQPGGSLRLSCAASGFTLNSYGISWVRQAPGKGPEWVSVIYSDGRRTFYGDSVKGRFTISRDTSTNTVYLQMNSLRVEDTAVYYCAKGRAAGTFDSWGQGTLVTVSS
VL: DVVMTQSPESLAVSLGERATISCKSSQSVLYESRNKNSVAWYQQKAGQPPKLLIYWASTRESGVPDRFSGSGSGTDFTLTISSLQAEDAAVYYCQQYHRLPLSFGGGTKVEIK

The parent's light chain CDRs are KSSQSVLYESRNKNSVA, WASTRES, QQYHRLPLS; each variant's own CDRs replace them letter for letter. Numbers give log10(Kd / nM), so 0 is 1 nM and 3 is 1 µM. Smaller is tighter. "nd" means that the variant was in the library but no mating with the target was seen in that replicate; the authors take this as a sign of poor binding, and no number exists.

CDR-L1	CDR-L2	CDR-L3	replicates, log10 nM	empty controls
KLNDTFQQYERNNSSVA	DAIISEA	QQYARLPLI	2.01 / 1.38 / 1.46 / 1.64 / 1.57 / 1.53	1/18 (2.88)
HVEHDWLLSNATMKAVA	NGATLAD	QQYGRLPLS	1.01 / 0.43 / 0.45 / 0.54 / 0.64 / 0.66	2/18 (2.76)
KIHELGVGNWKTANNIA	QTDIRMS	QSYNRLPLS	0.37 / 0.40 / 0.65 / 0.11 / 0.10 / 0.13	1/18 (1.45)
FIQGNYNDKYQASNSIA	DEAHLMA	QQYDLLPLS	1.31 / 1.67 / 0.28 / 1.52 / 2.21 / 1.68	2/18 (2.09)
NLGQKMALITEQRNQIA	DSTVRED	QQYSRLPLT	0.94 / 1.71 / 0.88 / 1.02 / 1.32 / 1.32	0/18
KLSMGIEMNTRQNHNMA	EASLKDS	QQYNRLPLF	0.62 / 0.48 / 0.43 / 0.20 / 0.29 / 0.51	0/18
TLYMGPTEARDSKHAIA	DMNERDR	QQYHRLPLV	0.77 / 0.66 / 0.46 / 0.65 / 0.64 / 0.83	1/18 (2.18)
KITWYELEMREPGSAVA	AAEVRAN	QQYWRLPLE	0.79 / 0.97 / 0.81 / 0.65 / 0.90 / 1.44	0/18
RMQEDLQLGTNIGNNIA	EHQTVFD	QQYAHLPLQ	0.93 / 0.38 / 0.71 / 0.93 / 0.87 / 0.95	2/18 (2.86)
KLDQKNRVNGMACYNVA	DSNNRLD	QQYHRLPLI	1.35 / 0.78 / 2.35 / 1.56 / 1.74 / 1.56	1/18 (0.98)
NLNTEYYTGTSNWDNIA	HGSMVEA	QQYFQLPIQ	0.75 / 1.35 / -0.75 / 0.48 / 0.09 / 1.06	1/18 (2.39)
QFEFHEEEGYQYSNNIA	NGEQRFS	QQYVKLPLV	1.11 / 0.98 / 0.05 / 0.37 / 0.91 / 0.45	0/18
KLEDQMQTSIAMDNSIA	QTNMFHE	QQYGRLPLV	2.70 / 1.07 / 2.16 / 0.80 / 1.26 / nd	0/18
TLALRTSYGNGLNKAIA	DVSARSY	QQYARLPLL	2.06 / 1.15 / 1.58 / 1.42 / 2.43 / 2.39	0/18
QMYPFEVAKGEGRNNVA	HVSTRAL	QQYFRLPLV	0.29 / 0.10 / 0.17 / 0.00 / 0.17 / 0.29	1/18 (2.84)
KVQNHSSGTLNDKNAVA	EDTEVAV	QQYVRLPLI	nd / nd / nd / nd / 1.24 / nd	0/18
SVHFYGTTGEQNRESIA	ENSIRVE	QQYSHLPLL	1.60 / 1.41 / 0.73 / 1.73 / 1.37 / 3.81	0/18
QLGKNQVGETLMQHAIA	HDALRAD	QQYFRLPLL	0.23 / 0.11 / -0.11 / 0.27 / 0.11 / 0.53	0/18
HMKDELGLGPQTYYSVA	HGSIREP	QDYYRLPLG	0.92 / 0.80 / 0.95 / 0.74 / 0.93 / 1.24	0/18
KFANQLVYWNQGQNAIA	DVTTKSA	QQYLRLPLM	0.56 / 0.50 / 0.42 / 0.55 / 0.63 / 0.95	0/18
HSNGNLRMGERNKNHVA	STDVRES	QQYSRLPLV	1.61 / 1.80 / 1.13 / 1.96 / 1.63 / 1.94	1/18 (1.80)
MISNEQDYNYSADNSVA	DVTEKCN	QQYKRLPLT	1.65 / nd / nd / 1.64 / 2.61 / nd	0/18
KVKNMMHQMGTQHQNIA	DMAIKCD	QQYQRLPLH	-0.05 / 0.09 / -0.41 / 0.17 / 0.08 / -0.19	0/18
KIQSHLSQSFASWNNIA	DREQSAE	QQYNRLPLV	0.24 / 0.39 / 0.24 / 0.12 / 0.06 / 0.51	0/18
SMFEKEYEELQPENNIA	DTTARMV	QQYFRLPLL	0.69 / 0.60 / 0.42 / 0.64 / 0.70 / 0.76	3/18 (2.74)
MLVGPDEMEQHNWQSVA	SAEALAM	QQYFRLPLS	nd / nd / nd / 1.91 / 2.09 / nd	0/18
KVHAYVQGVEQDMQNIA	ETSYASR	QQYFRLPLS	2.54 / 1.31 / 1.60 / 1.27 / 1.13 / 1.39	2/18 (3.80)
SMQVYTENFMEIGQNIA	DVSATTA	QQYHRLPLA	0.40 / 0.74 / 0.32 / 0.77 / 0.57 / 0.42	0/18
RMNKFMSGATEAKNSMA	GVEHRAN	QSYHRLPLS	1.41 / 0.83 / 1.16 / 0.68 / 1.28 / 1.07	2/18 (2.25)
ALASTGYQVDSQMQNIA	DGMERES	QQYNRLPLT	0.55 / 0.88 / 0.66 / 0.76 / 0.73 / 0.63	1/18 (3.42)
KLVGDMQSDKNPSENIA	EMSSVEQ	QQYARLPLD	4.30 / nd / nd / nd / nd / nd	2/18 (2.37)
KLYDDAASRVQDAENIA	EKTESYQ	QQYHRLPLS	nd / nd / nd / nd / nd / nd	0/18
KLTHAMASWRGQRHNIA	EATVTAP	QQYSRLPIS	1.25 / nd / 2.40 / 1.75 / 1.79 / 1.74	3/18 (2.42)
GIHSQMVGTSAVKENVA	NEAERLE	QQYQRLPLT	1.65 / 1.10 / 1.86 / nd / 1.05 / nd	0/18
SLIPFENQIMKGTNNIA	NTSVRAS	QQYMRLPFV	0.39 / 0.41 / 0.15 / -0.10 / 0.22 / 0.31	1/18 (2.49)
RIRESMFYSHEGRRNIA	QASIREI	QQYSQLPLF	0.18 / 0.27 / -0.22 / -0.09 / -0.23 / 0.20	0/18
MLDEYQMYEASNDAAIA	DANDVMP	QQYYSLPLS	1.91 / 2.47 / nd / 2.97 / 2.90 / 2.87	0/18
KLMGQGDHSIAHANSIA	NVDNVDM	QQYAHLPLS	1.82 / 2.06 / 2.14 / nd / 1.70 / 1.85	2/18 (3.18)
HIDQYTSYDNGENRAIA	DVSIKDY	QQYARLPLL	0.49 / 0.53 / 0.36 / 0.56 / 0.75 / 0.43	2/18 (2.71)

For reference, 4 entries of the list once more:

CDR-L1	CDR-L2	CDR-L3	replicates, log10 nM	empty controls
SMQVYTENFMEIGQNIA	DVSATTA	QQYHRLPLA	0.40 / 0.74 / 0.32 / 0.77 / 0.57 / 0.42	0/18
QFEFHEEEGYQYSNNIA	NGEQRFS	QQYVKLPLV	1.11 / 0.98 / 0.05 / 0.37 / 0.91 / 0.45	0/18
QMYPFEVAKGEGRNNVA	HVSTRAL	QQYFRLPLV	0.29 / 0.10 / 0.17 / 0.00 / 0.17 / 0.29	1/18 (2.84)
KLYDDAASRVQDAENIA	EKTESYQ	QQYHRLPLS	nd / nd / nd / nd / nd / nd	0/18

Values of this round are not directly comparable with the first-round values of the same sequences. Of ten entries with the parent sequence, four were seen in most replicates (averages 0.34 to 2.37), three in one and three in none, so single entries are noisy. The authors averaged sequences with at least three values out of six and counted those with two or fewer as poor binders. Empty control strains, which show no peptide, gave a signal in 4% of pairings with all light chain designs; the median was 2.64 and 95% of these signals were weaker than 1.59. No background was subtracted. For each scFv, signals with the empty controls are counted beside the result, with their mean in brackets.